Source: ChEMBL document CHEMBL1127813, “Pseudopeptide inhibitors of Ras farnesyl-protein transferase” (J Med Chem, 1994)

Amino acid sequences for entries named in this document (tags omitted).
UniProt P49355, whole entry, looked up: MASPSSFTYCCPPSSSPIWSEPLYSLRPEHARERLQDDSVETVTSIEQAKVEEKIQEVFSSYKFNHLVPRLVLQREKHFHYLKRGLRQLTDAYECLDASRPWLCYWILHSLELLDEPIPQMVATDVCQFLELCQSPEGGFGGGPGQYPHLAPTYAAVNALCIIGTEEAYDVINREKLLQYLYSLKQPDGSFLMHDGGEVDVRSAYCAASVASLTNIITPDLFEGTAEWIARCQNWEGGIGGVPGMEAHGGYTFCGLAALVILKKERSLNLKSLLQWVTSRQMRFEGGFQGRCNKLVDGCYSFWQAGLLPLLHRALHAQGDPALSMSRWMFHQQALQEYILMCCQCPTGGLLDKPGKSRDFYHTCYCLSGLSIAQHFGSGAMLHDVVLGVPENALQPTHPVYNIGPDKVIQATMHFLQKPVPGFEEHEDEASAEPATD
UniProt Q5EAD5, whole entry, looked up: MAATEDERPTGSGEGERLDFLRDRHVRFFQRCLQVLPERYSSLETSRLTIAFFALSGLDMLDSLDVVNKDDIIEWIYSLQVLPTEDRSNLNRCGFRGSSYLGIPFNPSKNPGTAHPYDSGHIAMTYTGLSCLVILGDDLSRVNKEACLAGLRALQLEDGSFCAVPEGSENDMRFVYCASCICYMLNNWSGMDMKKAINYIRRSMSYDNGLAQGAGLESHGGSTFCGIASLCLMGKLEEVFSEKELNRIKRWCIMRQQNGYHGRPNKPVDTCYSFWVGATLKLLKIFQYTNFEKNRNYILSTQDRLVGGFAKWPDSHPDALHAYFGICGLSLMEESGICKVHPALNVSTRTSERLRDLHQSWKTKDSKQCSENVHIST

How the values were obtained:
[1] = target: Protein farnesyltransferase (Bos taurus, UniProt P29702+P49355); assay: Inhibitory activity against Ras Farnesyl Protein transferase from bovine brain
Outline: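 FPTase purified from bovine brain (about 1 nM) incubated with [³H]FPP, recombinant Harvey-Ras and varying inhibitor concentrations. Protein was acid-precipitated and Ras-bound label counted by scintillation. IC50 is the concentration halving label incorporation relative to the no-inhibitor control, given as mean ± SEM with the number of determinations.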

[2] = target: Geranylgeranyl transferase type I (Bos taurus, UniProt P29702+Q5EAD5); assay: Inhibitory activity against bovine type-1 geranylgeranyl transferase.; type: protein-complex assay

CC[C@H](C)[C@H](NC(=O)[C@@H](NC(=O)[C@@H](N)CS)C(C)C)C(=O)N[C@@H](CC(C)C)C(=O)O
IC50 [1]: 16.7 µM | IC50 [2]: 11.3 µM
